Test system: APP/PS1 mice hippocampus (Schaffer collateral-CA1)
Test: fEPSP slope and LTP in hippocampus of Alzheimer's animal model
Format: in vivo
Settings: 15 months old
Protocol: 1 mg/ml of aducanumab or control antibody was used as a stock solution. For intravenous injection, the tail vein injection method was used. Aducanumab was administered at a dose of 5 mg/kg. Control antibody was administered using an antibody inactivated with aducanumab at a dose of 5 mg/kg. In the drug injection test, the compound was administered once a day for about 11 to 13 days. 5 mice were used for the compound administration group and the control group, respectively.
For TC or hippocampus slice preparation. 9 to 10 weeks-old male C57BL/6J mice were anesthetized with isoflurane. […]
Field recordings were made with a concentric bipolar electrode positioned in the stratum radiatum of the CA1 region using an extracellular glass pipette (3.5 MΩ) filled with aCSF. […] In all fEPSP experiments, the test stimulation were measured prior to the beginning of all the experiments (30 μA) and a test-pulse stimulation strength that evokes 50% of the maximum fEPSP was used. Baseline synaptic responses was recorded for 30 minutes, and then long-term potentiation (LTP) was induced by high-frequency stimulation (HFS; 100 Hz, 4 trains, 1 s duration, 20 s inter-train interval). […]
Excitatory postsynaptic potential (EPSP) was recorded by the whole-cell patch clamp method using a patch clamp amplifier (molecular devices, USA). […] It was then recorded for 60 minutes (LTP). […]

aducanumab [reference compound]
Slope of fEPSP in CA1 region of Schaffer collateral circuit (synaptic efficacy): increased synaptic efficacy
Synaptic long-term potentiation (LTP) of the excitatory SC pathway: significantly increased

Source: US20250188032A1, “NITROGEN-CONTAINING HETEROCYCLIC COMPOUNDS AND USES THEREOF” (BNH RESEARCH CO., LTD., priority 2022, published 2025)
